PubChem BioAssay AID504339 (National Center for Advancing Translational Sciences (NCATS), 2011)
The entries are a selection whose mix differs from that of the whole data set. Inconclusive results are not listed. Where a call stands in place of a potency, no number is given. Active and inactive are the calls of the source. Calls follow the shape of the dose curve; as a rule, active = well fitted inhibition curve with a large enough effect; inconclusive = small, poorly fitted or top-dose-only effect; inactive = no such curve, though single readings can be large or run the other way.

The chains behind the UniProt entries cited, without tags or fusion partners.
UniProt O75164, whole entry: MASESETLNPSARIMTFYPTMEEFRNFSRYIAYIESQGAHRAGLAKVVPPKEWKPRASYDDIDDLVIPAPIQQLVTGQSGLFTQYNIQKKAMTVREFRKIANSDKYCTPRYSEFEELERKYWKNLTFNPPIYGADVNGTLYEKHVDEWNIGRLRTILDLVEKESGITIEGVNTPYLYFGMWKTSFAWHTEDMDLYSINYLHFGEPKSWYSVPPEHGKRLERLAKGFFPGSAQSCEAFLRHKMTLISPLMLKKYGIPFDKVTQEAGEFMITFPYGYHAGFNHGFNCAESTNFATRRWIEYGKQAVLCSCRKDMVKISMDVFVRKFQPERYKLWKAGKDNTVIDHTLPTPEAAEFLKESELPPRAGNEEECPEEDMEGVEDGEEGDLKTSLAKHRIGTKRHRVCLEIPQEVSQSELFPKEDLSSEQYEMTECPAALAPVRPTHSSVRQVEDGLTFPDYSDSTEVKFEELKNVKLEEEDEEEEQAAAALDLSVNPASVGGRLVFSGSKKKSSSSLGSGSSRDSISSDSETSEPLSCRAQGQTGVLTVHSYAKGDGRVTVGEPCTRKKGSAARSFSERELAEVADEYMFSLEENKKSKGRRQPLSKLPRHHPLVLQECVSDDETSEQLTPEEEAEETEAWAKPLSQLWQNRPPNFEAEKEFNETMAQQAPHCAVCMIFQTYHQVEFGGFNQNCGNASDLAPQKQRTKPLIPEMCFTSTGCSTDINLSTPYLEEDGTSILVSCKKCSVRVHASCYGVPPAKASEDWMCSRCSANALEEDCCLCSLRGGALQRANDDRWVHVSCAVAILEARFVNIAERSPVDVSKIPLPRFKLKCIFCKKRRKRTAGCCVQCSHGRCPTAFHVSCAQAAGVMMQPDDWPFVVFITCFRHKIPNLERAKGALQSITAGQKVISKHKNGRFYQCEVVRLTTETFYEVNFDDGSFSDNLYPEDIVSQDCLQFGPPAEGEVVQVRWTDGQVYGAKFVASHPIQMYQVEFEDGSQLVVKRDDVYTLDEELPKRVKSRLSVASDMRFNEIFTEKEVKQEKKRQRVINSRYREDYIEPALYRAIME

target: Lysine-specific demethylase 4A (Homo sapiens) (UniProt O75164); assay: qHTS Assay for Inhibitors of JMJD2A-Tudor Domain; settings: AlphaScreen JMJD2A-Tudor / H3K4me3 peptide binding; series mostly up to 114 µM; also: nearly all actives have a fitted effect of over 50% in size
Potency is read from the fitted curve at half-maximal effect.

Row | SMILES | Potency | activity change, negative = inhibition
1 | CC(C)c1ccc(OP(C)(=O)Nc2ccc(SC(F)(F)F)cc2)cc1 (stereo not given) | inactive | 
2 | CP(=O)(Nc1ccccc1F)Oc1ccccc1 (stereo not given) | inactive | 
3 | O=C(OCCN1CCN(CCOCc2ccccc2)CC1)C(O)(c1ccccc1)c1ccccc1 | inactive | 
4 | COc1ccc(OP(C)(=O)Nc2ccc(SC(F)(F)F)cc2)cc1 (stereo not given) | inactive | 
5 | CCOC(=O)c1ccc(NP(C)(=O)Oc2ccc(F)cc2)cc1 (stereo not given) | inactive | 
6 | CCCCCOc1ccc(NP(C)(=O)Oc2ccc(Cl)cc2Cl)cc1 (stereo not given) | inactive | 
7 | CP(=O)(Nc1ccccc1)Oc1ccc(F)cc1 (stereo not given) | inactive | 
8 | CCN(CC)CCCOC(=O)C(O)(c1ccccc1)C1CCCCC1 (stereo not given) | inactive | 
9 | COc1ccc(NP(C)(=O)Oc2ccccc2OC)cc1 (stereo not given) | active: 14.1 µM | 
10 | CN(C)CCOC(=O)C(O)(c1ccccc1)C1CCCCC1 (stereo not given) | inactive | 
11 | COc1ccc(OP(C)(=O)Nc2cccc(Br)c2)cc1 (stereo not given) | inactive | 
12 | Cc1c(C(c2ccc3c(c2)OCO3)c2c(C)n(C)n(-c3ccccc3)c2=O)c(=O)n(-c2ccccc2)n1C.O=[N+]([O-])c1cc([N+](=O)[O-])c(O)c([N+](=O)[O-])c1 | inactive | 
13 | Cc1cc(-c2cccc3ccccc23)c(C)cn1.O=[N+]([O-])c1cc([N+](=O)[O-])c(O)c([N+](=O)[O-])c1 | inactive | 
14 | O=[N+]([O-])c1ccc(OP2(=O)COCCO2)cc1 (stereo not given) | inactive | 
15 | CCOP(C)(=S)SCC(=O)NC(C)(CC)C(=O)O (stereo not given) | inactive | 
16 | CP(=O)(Nc1ccc(SC(F)(F)F)cc1)Oc1ccc(F)cc1 (stereo not given) | inactive | 
17 | Cc1ccccc1NP(C)(=O)Nc1ccccc1C | inactive | 
18 | CP(=O)(Nc1ccc2c(c1)OCCO2)Oc1ccccc1 (stereo not given) | inactive | 
19 | CCc1ccc(OP(C)(=O)Nc2cccnc2)cc1 (stereo not given) | inactive | 
20 | CP(=O)(Oc1ccccc1)N1CCOC1=O (stereo not given) | inactive | 
21 | O=C(OCCCN1CCCC1)C(O)(c1ccccc1)C1CCCCC1 (stereo not given) | inactive | 
22 | COc1ccccc1OP(C)(=O)Nc1c(C)n(C)n(-c2ccccc2)c1=O (stereo not given) | inactive | 
23 | COc1ccc(OP(C)(=O)Nc2ccc(Br)cc2)cc1 (stereo not given) | inactive | 
24 | CCN(CC)CC(O)COC(=O)C(O)(c1ccccc1)C1CCCCC1 (stereo not given) | inactive | 
25 | CN(C)C(=O)c1c([N+](=O)[O-])cc([N+](=O)[O-])cc1[N+](=O)[O-] | inactive | 
26 | CP(=O)(Nc1ccc(Cl)cc1)Oc1ccc(F)cc1 (stereo not given) | inactive | 
27 | COc1ccccc1OP(C)(=O)Nc1ccccc1Br (stereo not given) | inactive | 

Row | SMILES | Potency | activity change, negative = inhibition
28 | CC(C)(C)c1ccc(OP(C)(=O)O)cc1 | inactive | 
29 | CP(=O)(OC12CC3CC(CC(C3)C1)C2)OC12CC3CC(CC(C3)C1)C2 | inactive | 
30 | CCOC(=O)c1ccc(NP(C)(=O)Oc2ccc(Cl)cc2)cc1 (stereo not given) | inactive | 
31 | Nc1ccc2c(ccc3cccnc32)n1.O=[N+]([O-])c1cc([N+](=O)[O-])c(O)c([N+](=O)[O-])c1 | inactive | 
32 | COc1ccc(OP(C)(=O)Nc2ccccc2Br)cc1 (stereo not given) | inactive | 
33 | Cc1cc(C)cc(OP(C)(=O)Nc2cccc(C(F)(F)F)c2)c1 (stereo not given) | inactive | 
34 | CCCCCCCCCCCCCCCC1C[N+](C)(C)CCOP(C)(=O)O1 (stereo not given) | inactive | 
35 | CP(=O)(Nc1ccc(Cl)cc1Cl)Oc1ccccc1 (stereo not given) | inactive | 
36 | CP(=O)(OCCOc1ccccc1)OCCOc1ccccc1 | inactive | 
37 | CN(C)CCOC(=O)C(O)(c1ccccc1)C1CCCC1 (stereo not given) | inactive | 
38 | COc1ccc(OP(C)(=O)Nc2ccccn2)cc1 (stereo not given) | inactive | 
39 | COc1ccccc1OP(C)(=O)Nc1ccc(Br)cc1 (stereo not given) | inactive | 
40 | CCc1ccc(OP(C)(=O)O)cc1 | inactive | 
41 | COc1ccccc1OP(C)(=O)Nc1ccc(C)cc1C (stereo not given) | inactive | 
42 | CP(=O)(Nc1ccccn1)Oc1ccccc1 (stereo not given) | inactive | 
43 | Cc1c(NP(C)(=O)Oc2ccc(C(C)C)cc2)c(=O)n(-c2ccccc2)n1C (stereo not given) | inactive | 
44 | CCN(CC)CCCOC(=O)C(O)(c1ccccc1)c1ccccc1 | inactive | 
45 | Cc1cccc(C)c1OP(C)(N)=O (stereo not given) | inactive | 
46 | CC(C)(C)c1ccc(OP(C)(=O)Nc2ccc(SC(F)(F)F)cc2)cc1 (stereo not given) | inactive | 
47 | O=[N+]([O-])c1ccc2c(c1)C=Nc1ccccc1O2 | inactive | 
48 | O=[N+]([O-])c1cc([N+](=O)[O-])c(Nc2cccnc2)c([N+](=O)[O-])c1 | inactive | 
49 | COc1ccc(OP(C)(=O)Nc2cccc(F)c2)cc1 (stereo not given) | inactive | 
50 | COc1ccccc1OP(C)(=O)Nc1cc(Cl)ccc1C (stereo not given) | inactive | 
51 | Cc1cc(C)cc(OP(C)(N)=O)c1 (stereo not given) | inactive | 
52 | CCOC(=O)c1ccc(NP(C)(=O)Oc2ccccc2)cc1 (stereo not given) | inactive | 
53 | Cc1ccc(NP(C)(=O)Oc2ccccc2)c(C)c1 (stereo not given) | inactive | 
54 | COc1ccccc1OP(C)(=O)Nc1ccc(C)cc1 (stereo not given) | inactive | 

Row | SMILES | Potency | activity change, negative = inhibition
55 | COc1ccccc1OP(C)(=O)Nc1ccccc1 (stereo not given) | inactive | 
56 | CP(=O)(Nc1ccccc1Br)Oc1ccccc1 (stereo not given) | inactive | 
57 | CP(=S)(Nn1cnnc1)Oc1ccccc1 (stereo not given) | inactive | 
58 | Cc1cc(C)cc(OP(C)(=O)Nc2ccc(SC(F)(F)F)cc2)c1 (stereo not given) | inactive | 
59 | CP(=O)(NC(=O)Nc1ccccc1)Oc1ccccc1 (stereo not given) | inactive | 
60 | CP(=O)(Oc1ccccc1)OC(c1ccccc1)C(F)(F)F (stereo not given) | inactive | 
61 | Cc1cccc(C)c1OP(C)(=O)Nc1ccc(SC(F)(F)F)cc1 (stereo not given) | inactive | 
62 | CP(=O)(Nc1ccc(SC(F)(F)F)cc1)Oc1ccc(Cl)cc1 (stereo not given) | inactive | 
63 | CP(=O)(Nc1ccccn1)Oc1ccc(Cl)cc1 (stereo not given) | inactive | 
64 | CCOP(C)(=S)SCC(=O)NC(C)C(=O)O (stereo not given) | inactive | 
65 | CCOC(=O)c1ccc(NP(C)(=O)Oc2ccc(OC)cc2)cc1 (stereo not given) | inactive | 
66 | O=[N+]([O-])c1cc([N+](=O)[O-])c(O)c([N+](=O)[O-])c1.c1ccc(Oc2ccncc2)cc1 | inactive | 
67 | O=[N+]([O-])c1cc([N+](=O)[O-])c(-n2nnc3ccccc32)c([N+](=O)[O-])c1 | inactive | 
68 | O=[N+]([O-])c1cc([N+](=O)[O-])c(-c2cnn(-c3ccccc3)c2)c([N+](=O)[O-])c1 | active: 28.2 µM | 
69 | CC1=C2N=C(C=C3N=C(C(C)=C4[N-][C@@](C)([C@@H]5N=C1[C@](C)(CCC(=O)NC[C@@H](C)OP(=O)([O-])O[C@H]1[C@@H](O)[C@@H](n6cnc7cc(C)c(C)cc76)O[C@@H]1CO)[C@H]5CC(N)=O)[C@@](C)(CC(N)=O)[C@@H]4CCC(N)=O)[C@@](C)(CC(N)=O)[C@@H]3CCC(N)=O)C(C)(C)[C@@H]2CCC(N)=O.[C-]#N.[Co+3] | inactive | 
70 | CCCOc1ccc(NP(C)(=O)Oc2ccc(Cl)cc2)cc1 (stereo not given) | inactive | 
71 | CP(=O)(Nc1ccc(SC(F)(F)F)cc1)Oc1ccccc1 (stereo not given) | inactive | 
72 | COc1ccccc1OP(C)(=O)Nc1c(C)cccc1C (stereo not given) | inactive | 
73 | CN1CCCCC1COC(=O)C1(O)c2ccccc2CCc2ccccc21 (stereo not given) | inactive | 
74 | CC1=NCCc2c1[nH]c1ccccc21.O=[N+]([O-])c1cc([N+](=O)[O-])c(O)c([N+](=O)[O-])c1 | inactive | 
75 | Cc1cc(C)cc(OP(C)(=O)Nc2ccc(C)cc2C)c1 (stereo not given) | inactive | 
76 | CCOC(=O)c1ccc(NP(C)(=O)Oc2cc(C)cc(C)c2)cc1 (stereo not given) | inactive | 
77 | COc1ccccc1OP(C)(=O)Nc1cccc(Br)c1 (stereo not given) |  | inactive: -6.62% [at 11.4 µM]
78 | Cc1cc(C)cc(OP(C)(=O)Nc2ccccn2)c1 (stereo not given) | inactive | 
79 | CP(=O)(Nc1cccc(Br)c1)Oc1ccccc1 (stereo not given) | inactive | 
80 | Cc1ccc(C)c(NP(C)(=O)Oc2ccccc2)c1 (stereo not given) | inactive | 
